B1: RAC-alpha serine/threonine-protein kinase (Homo sapiens), P31749 (parent)
chain: MSDVAIVKEGWLHKRGEYIKTWRPRYFLLKNDGTFIGYKERPQDVDQREAPLNNFSVAQCQLMKTERPRPNTFIIRCLQWTTVIERTFHVETPEEREEWTTAIQTVADGLKKQEEEEMDFRSGSPSDNSGAEEMEVSLAKPKHRVTMNEFEYLKLLGKGTFGKVILVKEKATGRYYAMKILKKEVIVAKDEVAHTLTENRVLQNSRHPFLTALKYSFQTHDRLCFVMEYANGGELFFHLSRERVFSEDRARFYGAEIVSALDYLHSEKNVVYRDLKLENLMLDKDGHIKITDFGLCKEGIKDGATMKTFCGTPEYLAPEVLEDNDYGRAVDWWGLGVVMYEMMCGRLPFYNQDHEKLFELILMEEIRFPRTLGPEAKSLLSGLLKKDPKQRLGGGSEDAKEIMQHRFFAGIVWQHVYEKKLSPPFKPQVTSETDTRYFDEEFTAQMITITPPDQDDSMECVDSERRPHFPQFSYSASGTA
partner: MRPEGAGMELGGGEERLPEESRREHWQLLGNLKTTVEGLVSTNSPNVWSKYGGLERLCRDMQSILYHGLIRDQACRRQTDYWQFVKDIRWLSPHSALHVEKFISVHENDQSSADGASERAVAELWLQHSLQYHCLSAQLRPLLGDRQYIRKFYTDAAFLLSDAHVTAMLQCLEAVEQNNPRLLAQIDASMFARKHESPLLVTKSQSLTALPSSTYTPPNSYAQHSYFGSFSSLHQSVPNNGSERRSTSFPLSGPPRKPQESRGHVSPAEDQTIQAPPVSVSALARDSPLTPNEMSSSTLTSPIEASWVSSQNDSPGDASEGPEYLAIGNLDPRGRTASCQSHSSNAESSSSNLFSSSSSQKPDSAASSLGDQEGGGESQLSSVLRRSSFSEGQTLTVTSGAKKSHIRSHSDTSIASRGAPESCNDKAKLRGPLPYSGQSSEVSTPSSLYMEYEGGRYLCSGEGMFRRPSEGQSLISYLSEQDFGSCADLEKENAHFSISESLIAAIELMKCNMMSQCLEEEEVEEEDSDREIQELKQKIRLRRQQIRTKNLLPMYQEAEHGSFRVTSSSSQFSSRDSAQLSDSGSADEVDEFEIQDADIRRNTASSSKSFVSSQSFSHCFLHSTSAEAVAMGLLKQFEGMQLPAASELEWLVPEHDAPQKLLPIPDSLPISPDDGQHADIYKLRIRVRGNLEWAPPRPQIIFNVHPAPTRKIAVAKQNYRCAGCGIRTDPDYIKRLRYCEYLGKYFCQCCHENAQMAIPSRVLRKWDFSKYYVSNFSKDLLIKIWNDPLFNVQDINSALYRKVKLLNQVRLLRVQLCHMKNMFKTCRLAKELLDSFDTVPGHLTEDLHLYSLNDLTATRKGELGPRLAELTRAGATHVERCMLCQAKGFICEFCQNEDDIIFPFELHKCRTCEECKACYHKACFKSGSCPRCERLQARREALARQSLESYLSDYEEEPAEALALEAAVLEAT
B2: RAC-alpha serine/threonine-protein kinase (Homo sapiens), P31749 (parent)
chain: B1 chain
partner: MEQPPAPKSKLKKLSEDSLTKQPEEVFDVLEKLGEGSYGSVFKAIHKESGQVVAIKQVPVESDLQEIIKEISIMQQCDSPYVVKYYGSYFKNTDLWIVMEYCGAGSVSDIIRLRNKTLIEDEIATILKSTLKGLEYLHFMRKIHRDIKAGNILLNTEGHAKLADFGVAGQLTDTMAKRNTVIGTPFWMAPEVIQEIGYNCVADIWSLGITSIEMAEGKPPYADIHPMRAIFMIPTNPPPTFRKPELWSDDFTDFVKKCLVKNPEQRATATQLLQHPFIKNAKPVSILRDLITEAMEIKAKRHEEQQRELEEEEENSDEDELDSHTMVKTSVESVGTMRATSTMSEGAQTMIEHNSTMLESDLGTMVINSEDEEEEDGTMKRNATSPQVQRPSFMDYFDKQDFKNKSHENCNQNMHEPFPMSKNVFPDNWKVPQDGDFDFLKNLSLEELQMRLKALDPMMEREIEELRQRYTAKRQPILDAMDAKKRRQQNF
B3: RAC-alpha serine/threonine-protein kinase (Homo sapiens), P31749 (parent)
chain: B1 chain
partner: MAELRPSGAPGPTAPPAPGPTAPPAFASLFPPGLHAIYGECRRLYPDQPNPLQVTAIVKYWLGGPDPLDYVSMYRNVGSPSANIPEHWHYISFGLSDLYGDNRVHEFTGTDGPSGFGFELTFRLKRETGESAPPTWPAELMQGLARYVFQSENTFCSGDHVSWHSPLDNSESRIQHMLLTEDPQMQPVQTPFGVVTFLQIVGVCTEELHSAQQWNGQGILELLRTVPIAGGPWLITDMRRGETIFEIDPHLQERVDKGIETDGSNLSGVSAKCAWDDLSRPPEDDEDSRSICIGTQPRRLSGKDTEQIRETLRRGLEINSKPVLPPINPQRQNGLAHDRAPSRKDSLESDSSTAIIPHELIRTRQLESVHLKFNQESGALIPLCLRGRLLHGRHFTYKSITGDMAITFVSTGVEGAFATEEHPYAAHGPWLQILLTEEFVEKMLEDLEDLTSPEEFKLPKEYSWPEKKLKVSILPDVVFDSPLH
B4: RAC-alpha serine/threonine-protein kinase (Homo sapiens), P31749 (parent)
chain: B1 chain
partner: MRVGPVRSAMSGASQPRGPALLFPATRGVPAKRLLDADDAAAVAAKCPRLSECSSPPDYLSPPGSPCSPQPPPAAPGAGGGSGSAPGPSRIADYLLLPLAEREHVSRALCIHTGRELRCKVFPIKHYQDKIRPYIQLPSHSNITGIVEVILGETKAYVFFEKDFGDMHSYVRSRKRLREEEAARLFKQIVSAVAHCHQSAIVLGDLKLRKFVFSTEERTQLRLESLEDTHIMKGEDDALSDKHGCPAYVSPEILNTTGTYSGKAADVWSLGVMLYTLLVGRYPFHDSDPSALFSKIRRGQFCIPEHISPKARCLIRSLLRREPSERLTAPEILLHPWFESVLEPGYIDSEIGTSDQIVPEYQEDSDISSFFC
B5: RAC-alpha serine/threonine-protein kinase (Homo sapiens), P31749 (parent)
chain: B1 chain
partner: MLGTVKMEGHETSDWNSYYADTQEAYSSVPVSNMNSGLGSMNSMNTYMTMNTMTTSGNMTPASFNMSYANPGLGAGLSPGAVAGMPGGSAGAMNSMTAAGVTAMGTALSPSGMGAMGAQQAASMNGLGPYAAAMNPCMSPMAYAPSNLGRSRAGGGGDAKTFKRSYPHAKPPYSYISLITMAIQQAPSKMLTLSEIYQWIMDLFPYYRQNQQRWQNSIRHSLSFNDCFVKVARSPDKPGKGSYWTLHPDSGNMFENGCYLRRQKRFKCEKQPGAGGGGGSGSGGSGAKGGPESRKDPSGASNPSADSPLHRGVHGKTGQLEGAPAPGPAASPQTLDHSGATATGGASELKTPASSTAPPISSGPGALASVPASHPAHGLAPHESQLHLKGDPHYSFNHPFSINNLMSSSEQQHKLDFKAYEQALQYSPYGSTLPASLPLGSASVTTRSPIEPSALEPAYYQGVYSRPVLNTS

Variants of: B1
Settings: with rubic_human RUBCN

Row | effect of a mutation on the interaction | Variant
1 | with no effect | E17K

Variants of: B2
Settings: with stk3_human STK3, Q13188

Row | effect of a mutation on the interaction | Variant
2 | with no effect | E17K

Variants of: B3
Settings: with sufu_human SUFU

Row | effect of a mutation on the interaction | Variant
3 | with no effect | E17K

Variants of: B4
Settings: with trib1_human TRIB1, Q96RU8

Row | effect of a mutation on the interaction | Variant
4 | with no effect | E17K

Variants of: B5
Settings: with foxa1_human FOXA1, P55317

Row | effect of a mutation on the interaction | Variant
5 | with no effect | E17K

— IntAct's records for PubMed 35512704
